System: WHV replication
Assay: Antiviral studies in WHV replicating chimeric uPA/RAG-2 mice (serum WHV DNA dot blot)
Assay type: in vivo

## Interferon-alpha-2b
Mouse #1063, interferon-alpha-2b 135 IU/g body weight intramuscularly daily, after 15 days
  WHV replication (serum dot blot WHV DNA) during treatment: greater than four logs to non-detectable levels
Mouse #1063, upon withdrawal of interferon-alpha
  WHV replication after withdrawal of agent, compared with pretreatment: rebounded to levels higher than pretreatment WHV levels
Mouse #1418 (higher WHV pretreatment levels), interferon-alpha-2b 135 IU/g i.m. daily for 15 days
  WHV replication (serum WHV DNA) during treatment: only a limited response
Mouse #1418, after drug withdrawal
  WHV replication after withdrawal of agent: rebound effect upon viral replication similar to mouse #1063

Source: patent US6864402B1, “Chronic hepatitis virus infection and clonal hepatocellular carcinoma in mouse repopulated livers” (Albert Einstein College of Medicine of Yeshiva University, priority 1998, dated 2005)
